For one series, the system named is Jurkat-T cells. The series is described as follows: Mortality of Jurkat cells (Annexin V/PI flow cytometry). The series is classed as cell-based, human. The following applies: 55 μM. Here is the method:
FIG. 19—Representative dot plots of apoptosis assay of Jurkat cells after culturing them with different peptides. Annexin V and PI positive cells were analysed after culturing 1×10^5 cells for 1 hour, 24 hours or 48 hours with peptide 72, or DIF-P, or DIF-P3K, or DIF-P8R or without stimulus (n=4).
(§1) HL-60, Jurkat and NALM-6 cells were grown and maintained in complete culture medium in a humidified 5% CO2, atmosphere at 37° C. […] Human splenocytes from buffy coats were collected by density gradient using Histopaque 1077 (Histopaque®-1077, 10771 sigma) as described elsewhere (Johnston, L., Harding, S. A. & La Flamme, A. C. Comparing methods for ex vivo characterization of human monocyte phenotypes and in vitro responses. Immunobiology 2015, 220, 1305-1310). Cells from bone marrow were obtained disrupting femur and tibia as explained elsewhere too (Liu, X. & Quan, N. Immune Cell Isolation from Mouse Femur Bone Marrow. Bio-protocol 5, 2015). Monocytes and neutrophils from bone marrow were purified using the Stemcell kits (19861 and 19762 subsequently) and the kit protocol was followed. Cells were incubated in 96-well tissue culture plates (4×10^5/well for primary cells and 1×10^5 for cells lines) at 37° C. in 5% CO2 in complete culture medium using 55 μM of different Peripherin peptides. For proliferation assays, cells were labelled with CFSE (C34554, life technologies). After 1 hour, 24 hours or 48 hours, cells were analysed by flow cytometry and culture supernatants stored at −80° C. until use.
(§2) For cell death and apoptosis analysis, 400.000 of primary cells or 100.000 of cell line cells were incubated in 96-well plates in 200 μL of complete culture medium for 24 h at 37° C. and 5% CO2 in the absence or presence of 55 μM of different peptides. After 1 hour, 24 hours or 48 hours, apoptosis was measured by CFBlue Annexin V Apoptosis Detection Kit with PI (ANXVKCFB-100T, Immunostep), following kit protocol. […] Cell suspensions were analysed by flow cytometry using FACS CANTO II instrumentation (BD, Biosciences, San Jose, Calif.) and Flowjo (version 8.7) software. […]
(Flow cytometry measures light scatter and fluorescence of single cells or particles in a stream.)

Another series deals with HL-60 cells. The series is described as follows: Mortality of HL-60 cells (Annexin V/PI flow cytometry). The series is classed as cell-based, human. The note with it: 55 μM. Here is the method:
FIG. 20—Representative dot plots of apoptosis assay of HL-60 cells after culturing them with different peptides. Annexin V and PI positive cells were analysed after culturing 1×10^5 cells for 1 hour, 24 hours or 48 hours with peptide 72, or DIF-P, or DIF-P3K, or DIF-P8R or without stimulus (n=4).
as §1, §2

For another series, the system named is NALM-6 cells. The experiment in a line: Mortality of NALM-6 cells (Annexin V/PI flow cytometry). The series is classed as cell-based, human. The note with it: 55 μM. The protocol: FIG. 21—Representative dot plots of apoptosis assay of NALM-6 cells after culturing them with different peptides. Annexin V and PI positive cells were analysed after culturing 1×10^5 cells for 1 hour, 24 hours or 48 hours with peptide 72, or DIF-P, or DIF-P3K, or DIF-P8R or without stimulus (n=4).
as §1, §2

Series [1] concerns monocytes purified from the bone marrow of NOD mice. The experiment in a line: Cytokine release by monocytes purified from NOD bone marrow. The class given is cell-based, mouse. The note with it: compared to the other two peptides. Here is the method: (§3) FIG. 12-Concentrations of different cytokines produced by purified cells from NOD bone marrow cultured with peptides. 4×10^5 cells were incubated per well with peptide 72, or DIF-P, or DIF-[…], or DIF-[…], or without stimulus for 24 hours or 48 hours before collecting the supernatant. Cells are (A) monocytes and (B) neutrophils. HL-60, Jurkat and NALM-6 cells were grown and maintained in complete culture medium in a humidified 5% CO2, atmosphere at 37° C. […] Human splenocytes from buffy coats were collected by density gradient using Histopaque 1077 (Histopaque®-1077, 10771 sigma) as described elsewhere (Johnston, L., Harding, S. A. & La Flamme, A. C. Comparing methods for ex vivo characterization of human monocyte phenotypes and in vitro responses. Immunobiology 2015, 220, 1305-1310). Cells from bone marrow were obtained disrupting femur and tibia as explained elsewhere too (Liu, X. & Quan, N. Immune Cell Isolation from Mouse Femur Bone Marrow. Bio-protocol 5, 2015). […] After 1 hour, 24 hours or 48 hours, cells were analysed by flow cytometry and culture supernatants stored at -80° C. until use. Culture supernatants from mice proliferation assays were collected and IL-2, IL-4, IL-6, IFN-γ, IL-10, TNF-α and IL-17 cytokine amounts analysed by flow cytometry using CBA kit (560485, BD). […]

Series [2] relates to neutrophils purified from the bone marrow of NOD mice. The series is described as follows: Cytokine release by neutrophils purified from NOD bone marrow. The class given is cell-based, mouse. The following applies: compared to the other two peptides. The protocol: as §3

Experimental findings from patent US20220251158A1, “INTERMEDIATE FILAMENT-DERIVED PEPTIDES AND THEIR USES” (UNIVERSITAT DE LLEIDA, priority 2019, published 2022) are described below.

SMILES strings stand for the structures.

`CC[C@H](C)[C@H](NC(=O)[C@H](CCC(=O)O)NC(=O)[C@@H](NC(=O)[C@H](CC(=O)O)NC(=O)[C@H](CC(C)C)NC(=O)[C@H](C)NC(=O)[C@H](CCSC)NC(=O)[C@H](CCCCN)NC(=O)[C@@H](NC(=O)[C@H](CC(N)=O)NC(=O)[C@H](CC(C)C)NC(=O)[C@@H](N)CC(C)C)C(C)C)[C@@H](C)CC)C(=O)N[C@@H](CCCNC(=N)N)C(=O)N[C@@H](CCCNC(=N)N)C(=O)N[C@@H](CCCNC(=N)N)C(=O)N[C@@H](CCCNC(=N)N)C(=O)N[C@@H](CCCNC(=N)N)C(=O)N[C@@H](CCCNC(=N)N)C(=O)N[C@@H](CCCNC(=N)N)C(=O)N[C@@H](CCCNC(=N)N)C(=O)O` [DIF-P8R]: the mortality percentage in the series on Jurkat-T cells (1 h) is recorded as 57%; in the series on Jurkat-T cells (24 h), 71%; in the series on Jurkat-T cells (48 h), 77%; with HL-60 cells (1 h), 85%; in the series on HL-60 cells (24 h) it was 75%; in the series on HL-60 cells (48 h), 78%. The mortality percentage came to 85% in the series with NALM-6 cells (1 h), 81% with NALM-6 cells (24 h) and 80% with NALM-6 cells (48 h).

For the molecule `CC[C@H](C)[C@H](NC(=O)[C@H](CCC(=O)O)NC(=O)[C@@H](NC(=O)[C@H](CC(=O)O)NC(=O)[C@H](CC(C)C)NC(=O)[C@H](C)NC(=O)[C@H](CCSC)NC(=O)[C@H](CCCCN)NC(=O)[C@@H](NC(=O)[C@H](CC(N)=O)NC(=O)[C@H](CC(C)C)NC(=O)[C@@H](N)CC(C)C)C(C)C)[C@@H](C)CC)C(=O)N[C@@H](CCCCN)C(=O)N[C@@H](CCCCN)C(=O)N[C@@H](CCCCN)C(=O)O` [DIF-P3K, LLNVKMALDIEIKKK], the entries for the “stimulation of inflammatory cytokines IL-6 and IL-4” value in series [1] and in series [2] were “remarkably high” and “still significant”, respectively.
